The values that follow come from US20110195433A1 (priority 2007, published 2011).

Some compounds may have been tested in ways that are not shown here.

The target in the assay is mouse DOR (Mus musculus, UniProt P32300). Nature of the assay: [[…] binding (saturation and competitive) in DOR membranes. The following applies: read-out: Kd of [3H]diprenorphine, saturation binding.

As for [3H]diprenorphine, the Kd was determined as 440 pM.
